Test results taken from ChEMBL document CHEMBL5579878, “Allosteric Activation of Protein Phosphatase 5 with Small Molecules” (J Med Chem, 2024).

T1: Serine/threonine-protein phosphatase 5 (Homo sapiens) (UniProt P53041)
T1 sequence (whole entry): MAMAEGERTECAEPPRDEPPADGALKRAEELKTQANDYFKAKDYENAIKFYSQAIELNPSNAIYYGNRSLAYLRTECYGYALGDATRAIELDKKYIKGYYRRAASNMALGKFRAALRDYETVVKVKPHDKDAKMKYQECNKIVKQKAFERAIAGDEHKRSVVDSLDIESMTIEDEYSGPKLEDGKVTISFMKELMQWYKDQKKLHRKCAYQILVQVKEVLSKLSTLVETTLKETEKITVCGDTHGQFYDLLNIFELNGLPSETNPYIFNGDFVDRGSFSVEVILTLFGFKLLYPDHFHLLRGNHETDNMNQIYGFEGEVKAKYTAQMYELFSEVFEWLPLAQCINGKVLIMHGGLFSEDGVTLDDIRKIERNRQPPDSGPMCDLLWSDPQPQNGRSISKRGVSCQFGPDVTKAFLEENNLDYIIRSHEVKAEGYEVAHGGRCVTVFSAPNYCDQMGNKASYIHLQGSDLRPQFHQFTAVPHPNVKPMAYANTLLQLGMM

B1: Serine/threonine-protein phosphatase 5 (Homo sapiens), P53041 (protein)
chain: T1 sequence (whole entry)

Legend:
[1] = biological target: T1, Serine/threonine-protein phosphatase 5 (Homo sapiens); assay: Activation of His-tagged human PP5 extracted from Escherichia coli BL21 using pNPP as substrate assessed as fold change in maximum activation at 0.1 to 1000 uM incubated for 30 mins by spectrophotometric analysis; conditions: filed as activator, dose 0.1-1000 µM
[2] = substrate: N=c1oc2cc(F)cc(F)c2cc1C(N)=S; assay: Binding affinity to His-tagged human PP5 extracted from Escherichia coli BL21 using pNPP as substrate assessed as Vmax at 60 uM preincubated for 30 mins followed by substrate addition and measured after 10 mins; conditions: filed as activator, time 40.0 min

| Molecule | fold change (FC) [1] | Vmax [2] [µM/min] |
| --- | --- | --- |
| N=c1oc2cc(F)cc(F)c2cc1C(N)=S | 4.3 |  |
| B1 |  | 5.59 |
